These results are taken from publication PMC10819019 (Pharmaceutics, 2024).

The data set can be described thus: Stability assay of DPP-4 inhibitors after incubation with cysteine (nonenzymatic). Particulars: incubation with L-cysteine in phosphate buffer, 120 min.

As for `N#C[C@@H]1CCCN1C(=O)CNC12CC3CC(CC(O)(C3)C1)C2` [Vildagliptin, vildagliptin], the “Cysteine conjugate formation (high-resolution MS)” value is “observed”.
